# Measured values reported in article PMC7441158 (Nature Communications, 2020).
# By UniProt entry, the sequences of proteins in these tests, tags left out. Residues count along the entry.
# UniProt P32241, 31-457: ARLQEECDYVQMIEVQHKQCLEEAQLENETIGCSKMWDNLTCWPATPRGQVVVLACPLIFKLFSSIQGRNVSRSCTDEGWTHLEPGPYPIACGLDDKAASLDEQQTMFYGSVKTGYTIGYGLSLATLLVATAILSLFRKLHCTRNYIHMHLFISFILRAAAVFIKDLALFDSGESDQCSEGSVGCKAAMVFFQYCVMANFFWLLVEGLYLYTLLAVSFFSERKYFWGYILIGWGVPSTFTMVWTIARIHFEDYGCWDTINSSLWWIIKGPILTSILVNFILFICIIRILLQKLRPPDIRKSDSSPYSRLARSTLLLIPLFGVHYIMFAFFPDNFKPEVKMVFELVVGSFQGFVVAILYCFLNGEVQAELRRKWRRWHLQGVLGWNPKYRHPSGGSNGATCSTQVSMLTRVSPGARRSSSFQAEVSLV
# Target: VIP receptor 1 (VPAC1) (Homo sapiens, UniProt P32241)
# Assay: cAMP assay, COS-7 cells transiently expressing VPAC1
# Type: cell-based
structure (smiles),measurement,setting,value
"CC[C@H](C)[C@H](NC(=O)[C@H](CO)NC(=O)[C@H](CC(N)=O)NC(=O)[C@H](CC(C)C)NC(=O)[C@H](Cc1ccc(O)cc1)NC(=O)[C@H](CCCCN)NC(=O)[C@H](CCCCN)NC(=O)[C@@H](NC(=O)[C@H](C)NC(=O)[C@H](CCSC)NC(=O)[C@H](CCC(N)=O)NC(=O)[C@H](CCCCN)NC(=O)[C@H](CCCNC(=N)N)NC(=O)[C@H](CC(C)C)NC(=O)[C@H](CCCNC(=N)N)NC(=O)[C@@H](NC(=O)[C@H](Cc1ccc(O)cc1)NC(=O)[C@H](CC(N)=O)NC(=O)[C@H](CC(=O)O)NC(=O)[C@@H](NC(=O)[C@H](Cc1ccccc1)NC(=O)[C@@H](NC(=O)[C@H](C)NC(=O)[C@H](CC(=O)O)NC(=O)[C@H](CO)NC(=O)[C@@H](N)Cc1c[nH]cn1)C(C)C)[C@@H](C)O)[C@@H](C)O)C(C)C)C(=O)N[C@@H](CC(C)C)C(=O)N[C@@H](CC(N)=O)C(N)=O [VIP, vasoactive intestinal polypeptide, reference compound]","Efficacy raw data for Glucagon-receptors, VPAC1 + VIP",replicate 1,100
same,"Efficacy raw data for Glucagon-receptors, VPAC1 + VIP",replicate 2,99.99
same,"Efficacy raw data for Glucagon-receptors, VPAC1 + VIP",replicate 3,100
